## Binding of CDR-mutated scFvs to a peptide of the spike HR2 region

Reference: Engelhart et al. 2022, doi:10.1038/s41597-022-01779-4. File: FLAb, binding data.

Target: peptide PDVDLGDISGINAS, taken from heptad repeat 2 (HR2) of SARS-CoV-2 spike.

Ab-95 is the parent antibody, in scFv form: VH, then a (GGGGS)3 linker, then VL. The heavy chain is unchanged in all variants.
VH: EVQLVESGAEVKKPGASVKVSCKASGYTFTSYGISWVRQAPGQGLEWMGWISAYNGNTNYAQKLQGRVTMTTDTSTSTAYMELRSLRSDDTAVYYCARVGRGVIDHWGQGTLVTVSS
VL: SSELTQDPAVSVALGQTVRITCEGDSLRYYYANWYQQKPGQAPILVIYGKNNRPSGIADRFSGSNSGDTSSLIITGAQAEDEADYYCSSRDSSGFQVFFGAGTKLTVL

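The parent was found by panning a naive human phage display library on the peptide. AAYL52 was designed without a model: most single CDR substitutions and a random sample of double and triple ones. Affinity was read by AlphaSeq, a pooled yeast mating assay with surface-displayed partners. After mating in shaken culture at 30 °C for 16 h, diploids were selected and their barcode pairs sequenced. Read counts were normalised to the haploid input and turned into Kd by a linear fit to BCL2-family pairs of known affinity, for each replicate. Each pool was mated in three replicate cultures.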

Variants are written as CDR1, CDR2 and CDR3 of the light chain (limits as in the source). Parent: EGDSLRYYYAN, GKNNRPS, SSRDSSGFQVF. Every variant below is changed at S55 of the VL (sequential numbering). The read-out is the apparent dissociation constant on a log10 scale (nM): the lower, the stronger. Where no diploid with the target was found in that replicate, the entry reads "ND": below detection, most likely a poor binder, though not proof of it.

Variant EGDSLRYYYAN | GKNNRPI | SSRMSSTFQVF showed 5.63, ND, ND. Variant EGDSLRYYYAN | GKNNRPW | SSRDSSGVQVP gave 2.99, 2.35, ND. Variant EGDSLRYYYAN | GKNNRPW | SSPDSSGFQVF showed ND, 3.07, ND. For ELDSLRYYAAN | GKNNRPA | SSRDSSGFQVF, the assay gave 2.67, 2.78, 2.35. For LGDSLRYYYAN | GKNIRPG | SSRDSSGFQVF, the assay gave 2.42, 2.43, 2.26. With EGDSLRYYYAN | GKNNRPG | SSRDSSGFQVF the result was 2.49, 2.02, 2.27. For VGDSLRYYYAN | GKNNRPM | SSRDSSGFQVY, the assay gave 2.50, 2.27, 2.44. For EGDSLRYYYAN | GKRNRPD | SSRDSSWFQVF, the assay gave 3.61, 3.79, 2.72.

Variant EGDSLRYYYAN | GKWNRPE | SSRDSSGYQVF gave 3.12, 2.22, ND. For EGDSLKYYYAN | GKNNRPY | SSRDSSGFQVF, the assay gave 2.01, 2.15, 1.73. Variant EGDSLRYYYPN | GKNNRPF | SSRDSSGPQVF showed 3.74, 3.47, 2.47. With EQDSLRYRYAN | GKNNRPE | SSRDSSGFQVF the result was 2.06, 2.00, 1.81. For EHDSLRYYYAN | GKNNRPM | SSRDSSGFQVP, the assay gave 2.99, 2.55, 2.26. With EGDSLRYYYAN | MKNNRPT | SSRDSSSFQVF the result was ND, ND, ND. Variant EGDSLRYYYAN | GKNNQPP | VSRDSSGFQVF showed ND, ND, ND. For EGDSLRIYYAN | GKNNRPT | SARDSSGFQVF, the assay gave 3.21, 3.69, ND.

Variant EGDSLRYYYAN | GKNNRPK | SSRDSSGFQVF showed 2.47, 2.31, 2.28. With GGDSLRYYYAN | GKNNRPG | SSRDSSGFDVF the result was 2.52, 2.21, 1.81. For EGDSLRYYYAY | GKNNRPK | SSRDSSGFQVA, the assay gave 2.99, 3.24, 4.06. For DGDSLRYYYAN | GKNNRPD | ASRDSSGFQVF, the assay gave 2.29, 2.10, 1.77. Variant LGDSLRYYYAN | GKNNRPL | VSRDSSGFQVF gave ND, ND, ND. Variant EGDSLRYKYAM | GKNNRPE | SSRDSSGFQVF showed 2.57, 2.16, 2.06. Variant IGDSLRYYYEN | GKNNRPY | SSRDSSGFQVF showed ND, 5.54, ND. With EGDSLRYPYAN | GINNRPW | SSRDSSGFQVF the result was 2.36, 2.37, 2.21.

With EGDSLRYTYAN | GKNNRPH | SSRDSSWFQVF the result was ND, 3.09, ND. Variant EGDSLIYYYAN | GTNNRPD | SSRDSSGFQVF gave 2.88, 2.82, 3.15. Variant EGCSLRYYYAF | GKNNRPC | SSRDSSGFQVF gave ND, 4.86, ND. For EGDSLRYYYAN | GKNYRPF | SSRDSSGFFVF, the assay gave ND, ND, ND. Variant EGDSLKYYYAN | GKNNRPW | SSRDFSGFQVF showed 2.69, 2.82, 3.74. Variant EGDSLRYYYAN | GKNNRPV | WSRDSSGFQVF gave 2.50, 2.13, 2.06. For EGDSLRYYYAY | GKNNRPH | SSFDSSGFQVF, the assay gave ND, ND, ND. Variant EGDSDRYYYAN | GKNNRPM | RSRDSSGFQVF showed ND, ND, ND.

For EGDSLRYYYAN | GCNNRPK | SSRHSSGFQVF, the assay gave 3.69, 5.64, 3.09. Variant EGDHLRYYYAN | GKNNVPV | SSRDSSGFQVF showed 3.32, 3.32, 3.17. For EGDSLRYYYAG | GKNNRPN | SSRDSSRFQVF, the assay gave ND, ND, ND. For EGDSLVKYYAN | GKNNRPE | SSRDSSGFQVF, the assay gave 2.63, 2.24, 2.23. For EGDSLRYFYAN | GKNNRPP | SSMDSSGFQVF, the assay gave ND, ND, ND. Variant EGMSLGYYYAN | GKNNRPQ | SSRDSSGFQVF gave 2.93, 2.78, 3.00. Variant EGDSLRYYYAN | GKNNRPD | SSRDLSGFWVF showed ND, ND, ND. Variant EGDSLRYEYAN | GKNNRPD | SDRDSSGFQVF showed 1.54, 1.36, 0.67.

Variant EGDWLRYYYAN | GKNNRPN | SSRDSSGFQMF gave ND, 4.66, ND. With EGDSLRYYYTN | GKNNRPH | SSRDSSGQQVF the result was 3.02, 3.03, 3.88.

The first 7 variants above that were never detected:

EGDSLRYYYAN | MKNNRPT | SSRDSSSFQVF: ND, ND, ND.
EGDSLRYYYAN | GKNNQPP | VSRDSSGFQVF: ND, ND, ND.
LGDSLRYYYAN | GKNNRPL | VSRDSSGFQVF: ND, ND, ND.
EGDSLRYYYAN | GKNYRPF | SSRDSSGFFVF: ND, ND, ND.
EGDSLRYYYAY | GKNNRPH | SSFDSSGFQVF: ND, ND, ND.
EGDSDRYYYAN | GKNNRPM | RSRDSSGFQVF: ND, ND, ND.
EGDSLRYYYAG | GKNNRPN | SSRDSSRFQVF: ND, ND, ND.

Three control strains display no target. For library AAYL52, 28% of the pairings with them gave a signal, with a median of 3.91 and one signal in twenty below 2.90, so weak values seen in few replicates may be background. In this assay the parent's reference entry averaged 2.31; its copy inside this library read 2.25.